Experimental data from patent US20090149496A1, “INHIBITORS OF THE TASK-1 AND TASK-3 ION CHANNEL” (SANOFI-AVENTIS DEUTSCHLAND GMBH, priority 2006, published 2009).
Where a name gives a salt, the structure may show the parent alone.

By UniProt entry, the sequences of proteins in these tests, tags left out. Where a name states a change or a piece, a line headed by the entry shows the natural chain unless it says otherwise.
UniProt O35111: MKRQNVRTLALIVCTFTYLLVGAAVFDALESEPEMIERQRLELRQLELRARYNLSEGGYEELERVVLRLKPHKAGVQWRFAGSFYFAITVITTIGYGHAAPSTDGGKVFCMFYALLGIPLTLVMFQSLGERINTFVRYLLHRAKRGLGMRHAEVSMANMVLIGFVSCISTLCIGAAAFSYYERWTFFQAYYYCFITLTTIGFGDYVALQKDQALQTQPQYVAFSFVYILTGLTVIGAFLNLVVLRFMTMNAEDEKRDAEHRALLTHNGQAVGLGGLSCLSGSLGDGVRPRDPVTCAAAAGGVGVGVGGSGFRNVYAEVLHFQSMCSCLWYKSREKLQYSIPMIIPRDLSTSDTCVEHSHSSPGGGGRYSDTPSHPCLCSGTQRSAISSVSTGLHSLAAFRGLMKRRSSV

Target: T1, TASK1 (mouse) (Mus musculus, UniProt O35111)
T1 construct: expressed in transfected cells; host or cells: Xenopus laevis oocytes injected with in vitro synthesized RNA
Test: Activity on the TASK-1 channel in Xenopus oocytes (two-microelectrode voltage clamp), mouse channel
Type: cell-based
Description: A) Determination of the Activity on the TASK-1 Channel in Xenopus Oocytes
Mouse or human TASK-1 channels were expressed in Xenopus oocytes. For this purpose, oocytes were first isolated from Xenopus levis and defolliculated. Subsequently, TASK-1-encoding RNA synthesized in vitro was injected into these oocytes. After two days of TASK-1 protein expression, TASK-1 currents were measured on the oocytes with the two-microelectrode voltage clamp technique. In this measurement, the TASK-1 channels were generally activated with voltage jumps lasting 250 ms to 40 mV. The bath was flushed with a solution of the following composition: NaCl 96 mM, KCl 2 mM, CaCl2 1.8 mM, MgCl2 1 mM, HEPES 5 mM (titrated to pH 7.4 with NaOH). These experiments were performed at room temperature. For data acquisition and analysis, the following were used: Geneclamp amplifier (Axon Instruments, Foster City, USA) and MacLab D/A converter and software (ADinstruments, Castle Hill, Australia). The inventive substances were tested by adding them to the bath solution in different concentrations. The effects of the substances were calculated as the percentage inhibition of the TASK-1 control current which was obtained when no substance was added to the solution. The data was subsequently fitted to the Hill equation in order to determine the half-maximum inhibitory concentrations (IC50 values) for the particular substances.

Structure (SMILES): CC[C@H](NC(=O)c1cc(F)ccc1NS(=O)(=O)c1cccc2cccnc12)c1ccccc1 [Example 3, (S)-5-Fluoro-2-(quinoline-8-sulfonylamino)-N-(1-phenylpropyl)benzamide sodium salt]
- IC50: 820 nM
